# Results as given in ChEMBL document CHEMBL1148531, “The discovery of new 11beta-hydroxysteroid dehydrogenase type 1 inhibitors by common feature pharmacophore modeling and virtual screening” (J Med Chem, 2006).
# The chains behind the UniProt entries cited, without tags or fusion partners. Where a name states a change or a piece, a line headed by the entry shows the natural chain unless it says otherwise.
# UniProt P28845: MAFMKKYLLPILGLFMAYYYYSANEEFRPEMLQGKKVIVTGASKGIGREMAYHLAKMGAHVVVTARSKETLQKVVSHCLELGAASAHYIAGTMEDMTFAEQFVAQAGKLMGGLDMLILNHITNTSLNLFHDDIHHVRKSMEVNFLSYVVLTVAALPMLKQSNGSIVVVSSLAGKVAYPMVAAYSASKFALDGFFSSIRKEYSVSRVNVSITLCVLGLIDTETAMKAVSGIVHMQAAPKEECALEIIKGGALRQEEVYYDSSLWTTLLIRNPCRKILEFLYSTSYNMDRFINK
# Assays:
# Format in all cases: cell-based
# [1] = target: T1, 11-beta-hydroxysteroid dehydrogenase 1 (Homo sapiens, UniProt P28845); assay: Inhibition of human recombinant 11-beta-HSD1 transfected in intact HEK293 cells
# Procedure, shortened: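 HEK-293 cells cotransfected (calcium phosphate) with 11β-HSD1 and H6PDH plasmids, replated after 6 h at 30000 cells/well in steroid-free DMEM for 18 h. Inhibitor 50 nM–20 µM final with 200 nM radiolabeled cortisone, 90 min at 37 °C; stopped with excess unlabeled steroids in methanol, TLC, scintillation counting. Mean ± SD, at least four experiments.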
# [2] = target: T2, 11-beta-hydroxysteroid dehydrogenase type 2 (Homo sapiens, UniProt P80365); assay: Inhibition of human recombinant 11-beta-HSD2 expressed in HEK293 cells
# T2 sequence (P80365 whole entry): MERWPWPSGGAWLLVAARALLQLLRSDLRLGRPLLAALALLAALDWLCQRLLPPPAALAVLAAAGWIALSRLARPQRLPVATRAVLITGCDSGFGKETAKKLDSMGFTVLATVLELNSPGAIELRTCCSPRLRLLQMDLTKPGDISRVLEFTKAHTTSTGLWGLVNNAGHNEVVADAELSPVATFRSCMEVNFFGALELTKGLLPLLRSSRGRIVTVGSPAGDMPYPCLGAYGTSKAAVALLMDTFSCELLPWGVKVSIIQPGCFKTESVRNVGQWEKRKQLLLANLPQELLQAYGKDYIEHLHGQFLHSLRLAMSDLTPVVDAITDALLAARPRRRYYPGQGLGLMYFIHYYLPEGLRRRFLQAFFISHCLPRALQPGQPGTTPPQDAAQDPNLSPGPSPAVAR
# [3] = target: T1, 11-beta-hydroxysteroid dehydrogenase 1; assay: Inhibition of human recombinant 11-beta-HSD1 expressed in HEK293 cells
compound,measurement,setting,value
C[C@H]1C[C@@]2(C)CC[C@](C)(C(=O)N[C@H](Cc3ccccc3)C(=O)O)C[C@@]2(C)C2=CC(=O)[C@@H]3[C@@]4(C)CC[C@H](O)C(C)(C)[C@@H]4CC[C@@]3(C)[C@@]21C,IC50,[1],12600 nM
same,IC50,[2],2350 nM
same,IC50,[3],2810 nM
